{"source": "patent US20090258843A1", "about": "“Compositions Containing Antiviral Compounds and Methods of Using the Same” (Mallinckrodt Inc., priority 2008, published 2009)", "assay": "5-Fluorouracil solubility in water, UPLC (Example 16 I)", "conditions": "water 1 mL, 1-N-methylimidazole 0.1 mL + Naproxen 0.0535 g"}
{"compound": "O=c1[nH]cc(F)c(=O)[nH]1", "note": "[5-fluorouracil, 5-fluoro-1H-pyrimidine-2,4-dione]", "values": [{"measurement": "solubility of 5-fluorouracil", "value": 32.4, "unit": "mg/mL"}]}
